Earlier results on one substance are cited in publication PMC10616113, “Novel 3-phenylquinazolin-2,4(1H,3H)-diones as dual VEGFR-2/c-Met-TK inhibitors: design, synthesis, and biological evaluation” (Scientific Reports, 2023).

By UniProt entry, the sequences of proteins in these tests, tags left out. Residues count along the entry.
UniProt P35968, 20-1356: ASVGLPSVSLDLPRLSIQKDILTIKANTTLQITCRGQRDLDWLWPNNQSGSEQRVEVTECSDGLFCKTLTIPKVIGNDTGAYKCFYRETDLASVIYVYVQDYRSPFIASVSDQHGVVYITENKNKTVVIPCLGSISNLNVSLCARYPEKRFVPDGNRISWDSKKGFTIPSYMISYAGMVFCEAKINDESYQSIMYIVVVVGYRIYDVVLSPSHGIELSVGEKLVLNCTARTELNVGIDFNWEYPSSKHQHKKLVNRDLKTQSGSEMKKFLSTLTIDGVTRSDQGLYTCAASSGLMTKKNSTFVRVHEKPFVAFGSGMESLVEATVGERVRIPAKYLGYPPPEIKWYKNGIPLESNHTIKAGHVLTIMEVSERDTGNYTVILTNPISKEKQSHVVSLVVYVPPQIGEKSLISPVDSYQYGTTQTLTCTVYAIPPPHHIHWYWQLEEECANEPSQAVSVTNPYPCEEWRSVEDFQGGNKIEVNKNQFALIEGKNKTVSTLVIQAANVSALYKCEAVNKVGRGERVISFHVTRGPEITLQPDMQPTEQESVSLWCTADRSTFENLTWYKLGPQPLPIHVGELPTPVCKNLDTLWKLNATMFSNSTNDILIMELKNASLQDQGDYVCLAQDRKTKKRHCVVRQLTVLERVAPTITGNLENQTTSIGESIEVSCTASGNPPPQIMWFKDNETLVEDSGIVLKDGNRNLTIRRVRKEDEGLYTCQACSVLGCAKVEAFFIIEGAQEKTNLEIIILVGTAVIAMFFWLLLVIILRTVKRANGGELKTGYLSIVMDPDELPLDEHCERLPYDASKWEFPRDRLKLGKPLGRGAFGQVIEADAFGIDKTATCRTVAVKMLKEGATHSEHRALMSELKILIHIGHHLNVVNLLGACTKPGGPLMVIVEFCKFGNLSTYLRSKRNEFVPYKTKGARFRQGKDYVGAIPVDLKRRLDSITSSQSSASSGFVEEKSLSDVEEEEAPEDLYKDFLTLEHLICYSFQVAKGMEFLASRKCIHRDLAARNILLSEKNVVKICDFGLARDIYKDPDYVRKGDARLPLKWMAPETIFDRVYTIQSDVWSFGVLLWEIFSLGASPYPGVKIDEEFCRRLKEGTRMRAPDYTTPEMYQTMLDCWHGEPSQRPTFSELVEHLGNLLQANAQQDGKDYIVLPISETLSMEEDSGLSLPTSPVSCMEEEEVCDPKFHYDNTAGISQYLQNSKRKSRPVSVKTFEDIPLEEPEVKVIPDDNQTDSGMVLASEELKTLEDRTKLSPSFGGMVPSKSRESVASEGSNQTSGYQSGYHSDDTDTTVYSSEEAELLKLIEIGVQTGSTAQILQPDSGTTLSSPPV

The target in this series is VEGFR-2 (Homo sapiens, UniProt P35968). The settings on record: read-out: VEGFR-2 IC50; cited from earlier work.

The term IC50 denotes the point on the concentration scale where inhibition reaches its midpoint. In the case of MGCD-265 [XVII], the concentration for half-maximal inhibition (IC50) is 10 nM.
